Measured affinities in a library of Ab-95 light chain variants

From the AlphaSeq antibody data of Engelhart et al. 2022 (doi:10.1038/s41597-022-01779-4), copy in the FLAb collection.

Antigen: PDVDLGDISGINAS, a 14-residue peptide of the SARS-CoV-2 spike HR2 region.

Each scFv is VH, a (GGGGS)3 linker, VL, as in the parent Ab-95, and differs from it in the CDRs of the light chain only.
VH: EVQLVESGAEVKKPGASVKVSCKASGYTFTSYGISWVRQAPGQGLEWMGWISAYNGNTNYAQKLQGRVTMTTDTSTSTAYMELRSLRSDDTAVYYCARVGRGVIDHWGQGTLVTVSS
VL: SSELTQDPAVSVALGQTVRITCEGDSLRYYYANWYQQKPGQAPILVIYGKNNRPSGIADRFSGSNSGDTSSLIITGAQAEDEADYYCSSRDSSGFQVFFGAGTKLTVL

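The library (AAYL52) carries one to three amino acid substitutions per variant, with no insertions or deletions. Affinity was read by AlphaSeq, a pooled yeast mating assay with surface-displayed partners. After mating in shaken culture at 30 °C for 16 h, diploids were selected and their barcode pairs sequenced. The ratio of observed to expected reads was calibrated, replicate by replicate, on BCL2-family standards whose Kd was known from biolayer interferometry. The assay was run in three technical replicates.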

Substitutions are numbered in sequence along the VL above, starting at 1 (not Kabat). This list gathers variants with a substitution at D91 (VL, numbered from residue 1). Values are apparent Kd, the geometric mean of the replicates that gave a signal; lower means stronger binding. An entry "nd" has no value in the source: the pair was not observed among the diploids in any replicate. This suggests poor binding but is not conclusive.

- S89D+D91S+S92P = 50 nM (3 of 3 replicates)
- K50G+D91Q+S92C = 1.8 µM (3 of 3 replicates)
- Y29N+D91T+F95E = 200 nM (3 of 3 replicates)
- E23R+D91R = 340 nM (3 of 3 replicates)
- S26T+S55D+D91I = 68 nM (3 of 3 replicates)
- G49F+D91I+F95P = 25 µM (2 of 3 replicates)
- L27N+S89N+D91G = 2.2 µM (2 of 3 replicates)
- S89T+D91C+V97T = 430 nM (3 of 3 replicates)
- G24Y+D91H+S92R = 16 µM (1 of 3 replicates)
- R28A+N33F+D91T = 1.2 µM (1 of 3 replicates)
- R28A+D91Q+S92M = 160 nM (3 of 3 replicates)
- R53S+S55A+D91H = 1.5 µM (3 of 3 replicates)
- E23L+Y29K+D91A = 1.2 µM (3 of 3 replicates)
- G49D+D91A+V97D = 12 µM (3 of 3 replicates)
- S88C+D91K = 1.4 µM (1 of 3 replicates)
- E23T+D91M = 19 µM (1 of 3 replicates)
- Y29W+G49S+D91Q = 130 µM (1 of 3 replicates)
- R53P+D91C+S93I = 8.9 µM (2 of 3 replicates)
- A32N+D91H+F95Y = 6.2 µM (3 of 3 replicates)
- N52G+D91N+S93W = nd (0 of 3 replicates)
- N51A+D91F+V97R = 36 µM (1 of 3 replicates)
- A32Q+N51D+D91T = nd (0 of 3 replicates)
- A32M+D91N+S92D = 5.5 µM (2 of 3 replicates)
- D25V+S55P+D91L = 2.1 µM (3 of 3 replicates)
- Y31R+D91H = 1.1 µM (3 of 3 replicates)
- S26V+D91M+F98G = 100 µM (1 of 3 replicates)
- L27K+D91E+S93C = 2.2 µM (3 of 3 replicates)
- S26T+S55V+D91A = 1.8 µM (3 of 3 replicates)
- L27Y+N33P+D91V = 4.8 µM (1 of 3 replicates)
- P54Y+D91T+G94K = 2.2 µM (3 of 3 replicates)
- A32M+D91G = 1.6 µM (3 of 3 replicates)
- L27I+S89V+D91Q = 3.7 µM (1 of 3 replicates)
- Y29D+N52W+D91R = 310 nM (1 of 3 replicates)
- G24R+K50N+D91A = 1.4 µM (3 of 3 replicates)
- D91P+S93G+F98D = 2.7 µM (3 of 3 replicates)
- G49Q+N52T+D91K = 6.5 µM (1 of 3 replicates)
- Y31V+N51L+D91W = 3.0 µM (1 of 3 replicates)

The closing 4 entries, repeated:

{"changes": "G24R+K50N+D91A", "Kd (apparent)": "1.4 µM", "seen in": "3 of 3"}
{"changes": "D91P+S93G+F98D", "Kd (apparent)": "2.7 µM", "seen in": "3 of 3"}
{"changes": "G49Q+N52T+D91K", "Kd (apparent)": "6.5 µM", "seen in": "1 of 3"}
{"changes": "Y31V+N51L+D91W", "Kd (apparent)": "3.0 µM", "seen in": "1 of 3"}

Three control strains display no target. For library AAYL52, 28% of the pairings with them gave a signal, with a median of 8.2 µM and one signal in twenty below 800 nM, so weak values seen in few replicates may be background. For reference, the parent read 200 nM as the reference entry and 180 nM as a member of this library.